Legend:
full kinase panel [1] = molecular target: full kinase panel (Homo sapiens, UniProt P09769); test: Full kinase panel inhibition by Example compounds 8 and 51 at 1 μM (Tables 11 to 14; kinase named in each table line); settings: FGR
full kinase panel [2] = molecular target: full kinase panel (Homo sapiens, UniProt P07948); test: as above; settings: LYN
full kinase panel [3] = molecular target: full kinase panel (Homo sapiens, UniProt Q16832); test: as above; settings: DDR2
full kinase panel [4] = molecular target: full kinase panel (Homo sapiens, UniProt Q06187); test: as above; settings: BTK
full kinase panel [5] = molecular target: full kinase panel (Homo sapiens, UniProt Q99759); test: as above; settings: MEKK3
full kinase panel [6] = molecular target: full kinase panel (Homo sapiens, UniProt P41240); test: as above; settings: CSK
full kinase panel [7] = molecular target: full kinase panel (Homo sapiens, UniProt P35916); test: as above; settings: FLT4/VEGFR3
full kinase panel [8] = molecular target: full kinase panel (Homo sapiens, UniProt P22607); test: as above; settings: FGFR3
full kinase panel [9] = molecular target: full kinase panel (Homo sapiens, UniProt Q9UL54); test: as above; settings: TAOK2/TAO1
full kinase panel [10] = molecular target: full kinase panel (Homo sapiens, UniProt Q16288); test: as above; settings: TRKC
full kinase panel [11] = molecular target: full kinase panel (Homo sapiens, UniProt Q13163); test: as above; settings: MEK5
full kinase panel [12] = molecular target: full kinase panel (Homo sapiens, UniProt P29597); test: as above; settings: TYK2
full kinase panel [13] = molecular target: full kinase panel (Homo sapiens, UniProt P29322); test: as above; settings: EPHA8
full kinase panel [14] = molecular target: full kinase panel (Homo sapiens, UniProt P54753); test: as above; settings: EPHB3
full kinase panel [15] = molecular target: full kinase panel (Homo sapiens, UniProt Q15569); test: as above; settings: TESK1
full kinase panel [16] = molecular target: full kinase panel (Homo sapiens, UniProt P36888); test: as above; settings: FLT3
full kinase panel [17] = molecular target: full kinase panel (Homo sapiens, UniProt P15056); test: as above; settings: BRAF
full kinase panel [18] = molecular target: full kinase panel (Homo sapiens, UniProt P51813); test: as above; settings: BMX/ETK
full kinase panel [19] = molecular target: full kinase panel (Homo sapiens, UniProt P00519); test: as above; settings: ABL1
full kinase panel [20] = molecular target: full kinase panel (Homo sapiens, UniProt Q56UN5); test: as above; settings: YSK4/MAP3K19
full kinase panel [21] = molecular target: full kinase panel (Homo sapiens, UniProt Q02763); test: as above; settings: TIE2/TEK
full kinase panel [22] = molecular target: full kinase panel (Homo sapiens, UniProt O95819); test: as above; settings: HGK/MAP4K4
full kinase panel [23] = molecular target: full kinase panel (Homo sapiens, UniProt P00533); test: as above; settings: EGFR
full kinase panel [24] = molecular target: full kinase panel (Homo sapiens, UniProt P10398); test: as above; settings: ARAF
full kinase panel [25] = molecular target: full kinase panel (Homo sapiens, UniProt P57059); test: as above; settings: SIK1
full kinase panel [26] = molecular target: full kinase panel (Homo sapiens, UniProt Q9UF33); test: as above; settings: EPHA6
full kinase panel [27] = molecular target: full kinase panel (Homo sapiens, UniProt P42684); test: as above; settings: ABL2/ARG
full kinase panel [28] = molecular target: full kinase panel (Homo sapiens, UniProt Q12851); test: as above; settings: GCK/MAP4K2
full kinase panel [29] = molecular target: full kinase panel (Homo sapiens, UniProt Q07912); test: as above; settings: ACK1
full kinase panel [30] = molecular target: full kinase panel (Homo sapiens, UniProt Q9Y4K4); test: as above; settings: KHS/MAP4K5
full kinase panel [31] = molecular target: full kinase panel (Homo sapiens, UniProt P42680); test: as above; settings: TEC
full kinase panel [32] = molecular target: full kinase panel (Homo sapiens, UniProt Q92918); test: as above; settings: HPK1/MAP4K1
full kinase panel [33] = molecular target: full kinase panel (Homo sapiens, UniProt P22455); test: as above; settings: FGFR4
full kinase panel [34] = test: as above; settings: LYN B
full kinase panel [35] = molecular target: full kinase panel (Homo sapiens, UniProt Q9Y2K2); test: as above; settings: SIK3
full kinase panel [36] = molecular target: full kinase panel (Homo sapiens, UniProt Q9NY57); test: as above; settings: STK32B/YANK2
full kinase panel [37] = molecular target: full kinase panel (Homo sapiens, UniProt P08631); test: as above; settings: HCK
DLD-1 = test: Cell growth inhibition, DLD-1 (CCK-8); settings: read-out: Cell growth inhibition GI50, DLD-1, 72 hours
SW620 = test: Cell growth inhibition, SW620 (CCK-8); settings: read-out: Cell growth inhibition GI50, SW620, 72 hours
RET = RET (Homo sapiens, UniProt P07949); test: Kinase panel inhibition, RET; settings: 1 μM

Protein sequences, listed by entry. Tags and fused reporters are not part of them. Residues count along the entry.
UniProt P09769, whole entry: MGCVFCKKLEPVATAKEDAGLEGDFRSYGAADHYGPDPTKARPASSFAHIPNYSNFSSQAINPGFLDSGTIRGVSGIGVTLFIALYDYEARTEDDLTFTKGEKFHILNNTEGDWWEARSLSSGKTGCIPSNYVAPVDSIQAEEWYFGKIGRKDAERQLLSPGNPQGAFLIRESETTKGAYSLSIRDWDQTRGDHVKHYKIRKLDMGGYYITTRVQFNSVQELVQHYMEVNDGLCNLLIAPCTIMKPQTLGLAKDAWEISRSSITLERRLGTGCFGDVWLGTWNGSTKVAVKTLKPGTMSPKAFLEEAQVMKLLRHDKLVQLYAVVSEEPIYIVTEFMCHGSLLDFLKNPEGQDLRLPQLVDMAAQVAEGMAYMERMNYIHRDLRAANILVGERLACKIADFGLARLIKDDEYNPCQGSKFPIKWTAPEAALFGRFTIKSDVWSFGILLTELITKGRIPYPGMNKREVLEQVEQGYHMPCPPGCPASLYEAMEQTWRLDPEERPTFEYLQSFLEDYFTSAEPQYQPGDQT
UniProt P07948, whole entry: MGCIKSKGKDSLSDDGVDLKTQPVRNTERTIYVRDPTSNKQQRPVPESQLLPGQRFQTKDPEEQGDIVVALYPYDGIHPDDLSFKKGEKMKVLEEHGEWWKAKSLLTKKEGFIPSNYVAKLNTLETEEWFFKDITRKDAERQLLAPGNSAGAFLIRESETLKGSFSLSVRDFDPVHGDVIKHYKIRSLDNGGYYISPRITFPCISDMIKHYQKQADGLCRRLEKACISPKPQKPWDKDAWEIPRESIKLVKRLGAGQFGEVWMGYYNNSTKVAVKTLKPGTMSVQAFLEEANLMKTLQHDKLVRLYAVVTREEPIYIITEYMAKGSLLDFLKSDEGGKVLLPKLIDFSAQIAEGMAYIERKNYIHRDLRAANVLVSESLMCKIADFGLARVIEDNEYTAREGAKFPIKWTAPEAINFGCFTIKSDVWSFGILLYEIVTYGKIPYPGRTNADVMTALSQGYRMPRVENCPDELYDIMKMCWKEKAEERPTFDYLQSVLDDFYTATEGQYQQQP
UniProt Q99759, whole entry: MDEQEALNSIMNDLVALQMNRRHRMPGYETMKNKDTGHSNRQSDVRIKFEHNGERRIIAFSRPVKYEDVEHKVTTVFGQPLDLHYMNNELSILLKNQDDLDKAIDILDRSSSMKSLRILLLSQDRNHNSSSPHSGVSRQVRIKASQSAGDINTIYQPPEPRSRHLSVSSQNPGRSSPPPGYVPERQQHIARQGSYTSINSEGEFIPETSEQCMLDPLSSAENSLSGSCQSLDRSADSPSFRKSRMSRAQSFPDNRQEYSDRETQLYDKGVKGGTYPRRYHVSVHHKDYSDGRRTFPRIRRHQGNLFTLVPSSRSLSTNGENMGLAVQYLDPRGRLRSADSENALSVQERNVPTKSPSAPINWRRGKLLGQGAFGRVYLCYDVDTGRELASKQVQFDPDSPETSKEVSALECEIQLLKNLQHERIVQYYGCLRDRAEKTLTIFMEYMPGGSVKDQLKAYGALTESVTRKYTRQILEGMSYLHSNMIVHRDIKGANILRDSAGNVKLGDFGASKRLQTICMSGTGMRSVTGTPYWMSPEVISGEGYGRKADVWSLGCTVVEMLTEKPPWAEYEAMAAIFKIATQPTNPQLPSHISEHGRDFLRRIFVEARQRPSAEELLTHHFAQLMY
UniProt Q13163, whole entry: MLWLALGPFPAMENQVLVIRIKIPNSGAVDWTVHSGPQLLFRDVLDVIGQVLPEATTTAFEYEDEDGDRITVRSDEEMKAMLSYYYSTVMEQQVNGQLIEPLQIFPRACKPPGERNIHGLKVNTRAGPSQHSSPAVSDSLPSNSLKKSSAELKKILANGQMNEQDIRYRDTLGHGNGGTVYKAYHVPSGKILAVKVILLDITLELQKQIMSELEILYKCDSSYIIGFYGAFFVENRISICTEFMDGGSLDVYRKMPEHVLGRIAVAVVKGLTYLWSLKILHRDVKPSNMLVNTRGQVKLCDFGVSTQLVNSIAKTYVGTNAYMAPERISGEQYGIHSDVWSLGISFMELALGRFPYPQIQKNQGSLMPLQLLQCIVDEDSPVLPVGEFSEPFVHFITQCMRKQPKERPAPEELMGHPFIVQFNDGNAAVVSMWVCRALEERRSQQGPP
UniProt P29322, 28-1005 limits assumed: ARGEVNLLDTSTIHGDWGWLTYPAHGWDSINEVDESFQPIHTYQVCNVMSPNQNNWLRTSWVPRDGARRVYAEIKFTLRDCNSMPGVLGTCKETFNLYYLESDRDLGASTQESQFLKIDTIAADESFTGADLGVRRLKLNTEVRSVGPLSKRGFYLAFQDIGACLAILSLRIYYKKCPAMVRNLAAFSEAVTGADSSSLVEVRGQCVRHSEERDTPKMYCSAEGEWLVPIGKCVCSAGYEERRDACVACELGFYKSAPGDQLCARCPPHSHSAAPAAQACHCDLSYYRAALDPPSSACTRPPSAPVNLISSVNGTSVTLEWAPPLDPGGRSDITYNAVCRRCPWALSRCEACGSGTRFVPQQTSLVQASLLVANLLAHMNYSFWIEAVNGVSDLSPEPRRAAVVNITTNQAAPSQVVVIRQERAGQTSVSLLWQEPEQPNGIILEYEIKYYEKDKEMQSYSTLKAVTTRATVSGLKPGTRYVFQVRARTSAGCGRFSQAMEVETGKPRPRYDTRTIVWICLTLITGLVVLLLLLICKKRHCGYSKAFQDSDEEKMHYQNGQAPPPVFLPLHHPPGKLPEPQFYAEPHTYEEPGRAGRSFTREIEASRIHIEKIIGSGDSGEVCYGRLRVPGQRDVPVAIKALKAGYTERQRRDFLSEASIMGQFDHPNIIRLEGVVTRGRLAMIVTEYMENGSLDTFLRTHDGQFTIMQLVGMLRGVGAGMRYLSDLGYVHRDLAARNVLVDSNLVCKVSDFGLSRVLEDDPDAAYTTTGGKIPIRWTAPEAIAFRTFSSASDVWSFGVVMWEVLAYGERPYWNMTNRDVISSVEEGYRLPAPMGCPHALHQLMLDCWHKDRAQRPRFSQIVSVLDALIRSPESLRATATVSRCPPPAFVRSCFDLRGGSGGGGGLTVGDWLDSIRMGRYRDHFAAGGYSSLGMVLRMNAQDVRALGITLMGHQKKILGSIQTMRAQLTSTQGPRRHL
UniProt P10398, whole entry: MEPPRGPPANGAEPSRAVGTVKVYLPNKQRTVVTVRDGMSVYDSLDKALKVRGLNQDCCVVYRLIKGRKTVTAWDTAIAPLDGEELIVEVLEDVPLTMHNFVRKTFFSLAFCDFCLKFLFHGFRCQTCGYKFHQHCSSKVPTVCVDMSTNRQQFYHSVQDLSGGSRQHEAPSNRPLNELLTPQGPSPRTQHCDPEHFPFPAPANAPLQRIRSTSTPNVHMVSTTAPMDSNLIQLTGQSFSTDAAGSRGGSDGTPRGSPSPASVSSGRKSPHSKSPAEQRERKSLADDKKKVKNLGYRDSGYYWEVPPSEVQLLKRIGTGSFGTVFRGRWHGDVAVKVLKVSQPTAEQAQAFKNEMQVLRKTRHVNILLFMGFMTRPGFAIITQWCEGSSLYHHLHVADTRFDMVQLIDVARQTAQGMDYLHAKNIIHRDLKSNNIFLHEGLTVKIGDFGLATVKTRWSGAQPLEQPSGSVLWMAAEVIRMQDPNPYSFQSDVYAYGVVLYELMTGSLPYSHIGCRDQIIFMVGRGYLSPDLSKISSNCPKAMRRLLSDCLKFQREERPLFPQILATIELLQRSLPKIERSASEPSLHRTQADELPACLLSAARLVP
UniProt P42684, whole entry: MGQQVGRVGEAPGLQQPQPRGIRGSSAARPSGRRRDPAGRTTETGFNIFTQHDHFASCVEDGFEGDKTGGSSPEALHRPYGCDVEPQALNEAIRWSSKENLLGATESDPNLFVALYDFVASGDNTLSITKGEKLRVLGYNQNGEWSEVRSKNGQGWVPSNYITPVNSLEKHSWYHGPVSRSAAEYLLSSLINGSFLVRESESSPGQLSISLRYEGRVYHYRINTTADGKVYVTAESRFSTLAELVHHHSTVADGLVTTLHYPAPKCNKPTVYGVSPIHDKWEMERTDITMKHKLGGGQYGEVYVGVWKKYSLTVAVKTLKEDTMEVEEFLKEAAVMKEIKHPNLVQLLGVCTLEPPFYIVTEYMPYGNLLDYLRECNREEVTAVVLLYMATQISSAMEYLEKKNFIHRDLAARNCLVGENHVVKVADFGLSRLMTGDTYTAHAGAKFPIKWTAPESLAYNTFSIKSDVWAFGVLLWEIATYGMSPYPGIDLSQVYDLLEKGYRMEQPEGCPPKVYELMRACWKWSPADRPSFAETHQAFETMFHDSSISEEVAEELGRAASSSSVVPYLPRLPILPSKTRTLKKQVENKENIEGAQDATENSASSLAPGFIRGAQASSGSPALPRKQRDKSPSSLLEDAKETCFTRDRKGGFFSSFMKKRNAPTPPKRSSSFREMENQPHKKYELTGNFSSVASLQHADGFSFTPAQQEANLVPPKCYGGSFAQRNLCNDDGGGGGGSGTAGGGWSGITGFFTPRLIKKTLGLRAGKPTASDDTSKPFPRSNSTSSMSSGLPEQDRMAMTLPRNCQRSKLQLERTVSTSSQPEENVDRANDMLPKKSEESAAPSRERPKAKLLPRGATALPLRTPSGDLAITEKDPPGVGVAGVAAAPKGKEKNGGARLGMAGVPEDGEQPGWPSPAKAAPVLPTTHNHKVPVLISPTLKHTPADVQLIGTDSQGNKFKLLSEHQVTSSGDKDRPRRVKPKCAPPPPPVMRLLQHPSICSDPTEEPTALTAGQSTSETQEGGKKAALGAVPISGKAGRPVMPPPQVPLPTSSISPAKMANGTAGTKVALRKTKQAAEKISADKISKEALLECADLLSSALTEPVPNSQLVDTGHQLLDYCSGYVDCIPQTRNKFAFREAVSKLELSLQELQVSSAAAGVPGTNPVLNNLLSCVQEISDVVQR
UniProt Q9Y4K4, whole entry: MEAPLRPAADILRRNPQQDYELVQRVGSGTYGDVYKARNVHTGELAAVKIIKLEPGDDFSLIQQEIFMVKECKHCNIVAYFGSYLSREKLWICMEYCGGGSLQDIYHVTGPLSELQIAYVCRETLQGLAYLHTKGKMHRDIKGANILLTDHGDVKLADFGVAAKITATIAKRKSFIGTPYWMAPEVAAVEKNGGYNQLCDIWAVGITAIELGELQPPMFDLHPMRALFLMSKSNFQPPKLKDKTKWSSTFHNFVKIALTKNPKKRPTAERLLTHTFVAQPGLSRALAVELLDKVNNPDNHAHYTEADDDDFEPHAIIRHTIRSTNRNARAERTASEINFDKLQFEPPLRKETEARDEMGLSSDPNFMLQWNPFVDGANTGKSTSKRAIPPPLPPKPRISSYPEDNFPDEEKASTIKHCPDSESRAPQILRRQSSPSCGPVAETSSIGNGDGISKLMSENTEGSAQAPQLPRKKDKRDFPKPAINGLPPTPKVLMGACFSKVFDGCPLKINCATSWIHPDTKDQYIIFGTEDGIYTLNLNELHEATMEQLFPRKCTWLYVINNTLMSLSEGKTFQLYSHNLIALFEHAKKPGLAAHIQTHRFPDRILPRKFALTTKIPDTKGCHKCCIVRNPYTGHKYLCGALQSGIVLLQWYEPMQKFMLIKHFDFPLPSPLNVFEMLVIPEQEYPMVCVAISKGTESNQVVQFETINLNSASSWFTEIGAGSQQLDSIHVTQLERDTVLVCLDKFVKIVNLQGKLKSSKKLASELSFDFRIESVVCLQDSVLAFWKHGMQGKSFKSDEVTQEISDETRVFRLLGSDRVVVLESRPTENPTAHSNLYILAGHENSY
UniProt Q92918, whole entry: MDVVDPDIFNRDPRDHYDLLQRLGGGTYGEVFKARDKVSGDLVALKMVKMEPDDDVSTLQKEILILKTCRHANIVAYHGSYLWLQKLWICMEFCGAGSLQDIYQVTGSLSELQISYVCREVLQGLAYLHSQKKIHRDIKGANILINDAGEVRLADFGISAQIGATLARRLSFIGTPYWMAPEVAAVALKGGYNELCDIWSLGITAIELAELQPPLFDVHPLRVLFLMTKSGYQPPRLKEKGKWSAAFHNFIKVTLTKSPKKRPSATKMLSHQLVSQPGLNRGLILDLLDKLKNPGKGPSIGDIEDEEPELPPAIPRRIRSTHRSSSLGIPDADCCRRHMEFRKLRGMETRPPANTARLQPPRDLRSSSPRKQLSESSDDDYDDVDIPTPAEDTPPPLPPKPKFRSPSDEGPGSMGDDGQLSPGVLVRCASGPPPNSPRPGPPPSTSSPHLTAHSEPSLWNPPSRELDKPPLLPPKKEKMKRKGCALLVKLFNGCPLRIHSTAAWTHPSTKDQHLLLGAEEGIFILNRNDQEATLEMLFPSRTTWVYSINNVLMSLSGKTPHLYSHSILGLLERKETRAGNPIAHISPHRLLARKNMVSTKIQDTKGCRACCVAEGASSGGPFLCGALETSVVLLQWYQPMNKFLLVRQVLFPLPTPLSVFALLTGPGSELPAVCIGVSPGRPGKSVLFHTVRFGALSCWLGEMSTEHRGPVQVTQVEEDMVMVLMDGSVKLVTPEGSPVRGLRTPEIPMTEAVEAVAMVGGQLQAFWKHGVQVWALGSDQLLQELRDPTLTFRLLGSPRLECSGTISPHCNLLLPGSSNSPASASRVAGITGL

Cc1cn(-c2cc(C(=O)Nc3ccc(C)c(N4Cc5cnc(NC6CC6)nc5C5(CC5)C4=O)c3)cc(C(F)(F)F)c2)cn1
kinase inhibition (residual enzyme activity) (full kinase panel [1]): ◯ (residual enzyme activity values were 40% or less, i.e., inhibited by 60% or more)
kinase inhibition (residual enzyme activity) (full kinase panel [2]): ◯ (residual enzyme activity values were 40% or less, i.e., inhibited by 60% or more)
kinase inhibition (residual enzyme activity) (full kinase panel [3]): ◯ (residual enzyme activity values were 40% or less, i.e., inhibited by 60% or more)
kinase inhibition (residual enzyme activity) (full kinase panel [4]): ◯ (residual enzyme activity values were 40% or less, i.e., inhibited by 60% or more)
kinase inhibition (residual enzyme activity) (full kinase panel [5]): ◯ (residual enzyme activity values were 40% or less, i.e., inhibited by 60% or more)
kinase inhibition (residual enzyme activity) (full kinase panel [6]): ◯ (residual enzyme activity values were 40% or less, i.e., inhibited by 60% or more)
kinase inhibition (residual enzyme activity) (full kinase panel [7]): ◯ (residual enzyme activity values were 40% or less, i.e., inhibited by 60% or more)
kinase inhibition (residual enzyme activity) (full kinase panel [8]): ◯ (residual enzyme activity values were 40% or less, i.e., inhibited by 60% or more)
kinase inhibition (residual enzyme activity) (full kinase panel [9]): ◯ (residual enzyme activity values were 40% or less, i.e., inhibited by 60% or more)
kinase inhibition (residual enzyme activity) (full kinase panel [10]): ◯ (residual enzyme activity values were 40% or less, i.e., inhibited by 60% or more)
kinase inhibition (residual enzyme activity) (full kinase panel [11]): ◯ (residual enzyme activity values were 40% or less, i.e., inhibited by 60% or more)
kinase inhibition (residual enzyme activity) (full kinase panel [12]): ◯ (residual enzyme activity values were 40% or less, i.e., inhibited by 60% or more)
kinase inhibition (residual enzyme activity) (full kinase panel [13]): ◯ (residual enzyme activity values were 40% or less, i.e., inhibited by 60% or more)
kinase inhibition (residual enzyme activity) (full kinase panel [14]): ◯ (residual enzyme activity values were 40% or less, i.e., inhibited by 60% or more)
kinase inhibition (residual enzyme activity) (full kinase panel [15]): ◯ (residual enzyme activity values were 40% or less, i.e., inhibited by 60% or more)
kinase inhibition (residual enzyme activity) (full kinase panel [16]): ◯ (residual enzyme activity values were 40% or less, i.e., inhibited by 60% or more)
kinase inhibition (residual enzyme activity) (full kinase panel [17]): ◯ (residual enzyme activity values were 40% or less, i.e., inhibited by 60% or more)
kinase inhibition (residual enzyme activity) (full kinase panel [18]): ◯ (residual enzyme activity values were 40% or less, i.e., inhibited by 60% or more)
kinase inhibition (residual enzyme activity) (full kinase panel [19]): ◯ (residual enzyme activity values were 40% or less, i.e., inhibited by 60% or more)
kinase inhibition (residual enzyme activity) (full kinase panel [20]): ◯ (residual enzyme activity values were 40% or less, i.e., inhibited by 60% or more)
kinase inhibition (residual enzyme activity) (full kinase panel [21]): ◯ (residual enzyme activity values were 40% or less, i.e., inhibited by 60% or more)
kinase inhibition (residual enzyme activity) (full kinase panel [22]): ◯ (residual enzyme activity values were 40% or less, i.e., inhibited by 60% or more)
kinase inhibition (residual enzyme activity) (full kinase panel [23]): ◯ (residual enzyme activity values were 40% or less, i.e., inhibited by 60% or more)
kinase inhibition (residual enzyme activity) (full kinase panel [24]): ◯ (residual enzyme activity values were 40% or less, i.e., inhibited by 60% or more)
kinase inhibition (residual enzyme activity) (full kinase panel [25]): ◯ (residual enzyme activity values were 40% or less, i.e., inhibited by 60% or more)
kinase inhibition (residual enzyme activity) (full kinase panel [26]): ◯ (residual enzyme activity values were 40% or less, i.e., inhibited by 60% or more)
kinase inhibition (residual enzyme activity) (full kinase panel [27]): ◯ (residual enzyme activity values were 40% or less, i.e., inhibited by 60% or more)
kinase inhibition (residual enzyme activity) (full kinase panel [28]): ◯ (residual enzyme activity values were 40% or less, i.e., inhibited by 60% or more)
kinase inhibition (residual enzyme activity) (full kinase panel [29]): ◯ (residual enzyme activity values were 40% or less, i.e., inhibited by 60% or more)
kinase inhibition (residual enzyme activity) (full kinase panel [30]): ◯ (residual enzyme activity values were 40% or less, i.e., inhibited by 60% or more)
kinase inhibition (residual enzyme activity) (full kinase panel [31]): ◯ (residual enzyme activity values were 40% or less, i.e., inhibited by 60% or more)
kinase inhibition (residual enzyme activity) (full kinase panel [32]): ◯ (residual enzyme activity values were 40% or less, i.e., inhibited by 60% or more)
kinase inhibition (residual enzyme activity) (full kinase panel [33]): ◯ (residual enzyme activity values were 40% or less, i.e., inhibited by 60% or more)
kinase inhibition (residual enzyme activity) (full kinase panel [34]): ◯ (residual enzyme activity values were 40% or less, i.e., inhibited by 60% or more)
kinase inhibition (residual enzyme activity) (full kinase panel [35]): ◯ (residual enzyme activity values were 40% or less, i.e., inhibited by 60% or more)
kinase inhibition (residual enzyme activity) (full kinase panel [36]): ◯ (residual enzyme activity values were 40% or less, i.e., inhibited by 60% or more)
kinase inhibition (residual enzyme activity) (full kinase panel [37]): ◯ (residual enzyme activity values were 40% or less, i.e., inhibited by 60% or more)
GI50 (DLD-1): < 5 µM
GI50 (SW620): < 5 µM
kinase inhibited by 60% or more (RET): ◯ (residual enzyme activity values were 40% or less, i.e., inhibited by 60% or more)

From US20260382623A1, “NOVEL COMPOUND FOR INHIBITING PROTEIN KINASES AND PHARMACEUTICAL COMPOSITION COMPRISING SAME” (published 2026)
